For the assay, the system named is trypsin/thrombin. The settings on record: for Selectivity (trypsin/thrombin): Table 1. Here is the method: To identify the selectivity for thrombin over trypsin of the compound of the present invention, the inhibitory activity for trypsin of the compound of formula (I) is measured as Ki value according to the same method as the above method for determination of thrombin inhibitory activity, and then the ratio of the activity for trypsin to the activity for thrombin is calculated. In this case, the procedure for determination of inhibitory activity for trypsin is substantially identical to that for thrombin, except that N-benzoyl-Val-Gly-Arg para-nitroanilide hydrochloride is used as the substrate.

Consider `CNC(=N)c1ccc(C[C@H](NS(=O)(=O)c2ccc3ccccc3c2)C(=O)N(C)C2CCCC2)cc1` [Example 7, (S)-N-cyclopentyl-N-methyl-3-[4-(methylamidino)phenyl]-2-(2-naphthylsulfonylamino)propionamide], for which the “selectivity for thrombin against trypsin” value was ~26304 times and the “Selectivity (trypsin/thrombin)” value was 26304. As for `COc1cccc2c(S(=O)(=O)N[C@@H](Cc3ccc(C(=N)NN)cc3)C(=O)N(C)C3CCCC3)cccc12` [Example 19, (S)-3-[4-(amidrazono)-phenyl]-N-cyclopentyl-N-methyl-2-(5-methoxy-naphthalene-1-sulfonylamino)-propionamide], the “Selectivity (trypsin/thrombin)” value is 990.

With `COc1cc2ccc(S(=O)(=O)N[C@@H](Cc3ccc(C(=N)NN)cc3)C(=O)N(C)C3CCCC3)cc2cc1OC` [Example 20, (S)-3-[4-(amidrazono)-phenyl]-N-cyclopentyl-N-methyl-2-(6,7-dimethoxy-naphthalene-2-sulfonylamino)-propionamide], the “Selectivity (trypsin/thrombin)” value is on record as 106.

For `CN(C(=O)[C@H](Cc1ccc(C(=N)NN)cc1)NC(=O)COc1cccc2ccccc12)C1CCCC1` [Example 23, (S)-3-[4-(amidrazono)-phenyl]-N-cyclopentyl-N-methyl-2-[2-(naphthalen-1-yl-oxy)acetylamino]-propionamide], the “Selectivity (trypsin/thrombin)” value is 8.

Values taken from patent US5747535A, “Selective thrombin inhibitors” (priority 1995, dated 1998).
